According to ChEMBL document CHEMBL1147690, “A cassette-dosing approach for improvement of oral bioavailability of dual TACE/MMP inhibitors” (Bioorg Med Chem Lett, 2006):

Molecular target: Collagenase 3 (Homo sapiens, UniProt P45452)
Assay: Binding affinity to recombinant MMP13

## CN1C(=O)N(C[C@H](C(=O)NO)[C@@H](CC2CCCC2)C(=O)N2CCCCC2)C(=O)C1(C)C
  Ki: 1 nM
